Test results as given in US4873236A, “Condensed diazepinones, processes for preparing them and pharmaceutical compositions containing these compounds” (Dr. Karl Thomae GmbH, priority 1986, dated 1989).

Chains of the proteins cited; added tags and fusions are not shown.
UniProt P10980, whole entry: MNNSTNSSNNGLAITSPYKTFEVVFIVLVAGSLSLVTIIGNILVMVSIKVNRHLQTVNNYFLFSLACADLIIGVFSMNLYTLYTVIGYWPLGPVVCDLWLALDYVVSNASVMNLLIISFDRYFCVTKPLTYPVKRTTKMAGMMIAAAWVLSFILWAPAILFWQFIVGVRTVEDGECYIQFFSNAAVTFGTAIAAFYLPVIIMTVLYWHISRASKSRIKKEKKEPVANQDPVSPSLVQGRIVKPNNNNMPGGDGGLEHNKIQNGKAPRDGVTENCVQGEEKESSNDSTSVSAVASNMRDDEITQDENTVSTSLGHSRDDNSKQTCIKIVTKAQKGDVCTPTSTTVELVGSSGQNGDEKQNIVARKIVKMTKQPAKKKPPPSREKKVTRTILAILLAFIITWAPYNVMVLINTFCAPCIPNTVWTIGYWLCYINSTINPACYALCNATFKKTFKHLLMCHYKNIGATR
UniProt P08483, whole entry: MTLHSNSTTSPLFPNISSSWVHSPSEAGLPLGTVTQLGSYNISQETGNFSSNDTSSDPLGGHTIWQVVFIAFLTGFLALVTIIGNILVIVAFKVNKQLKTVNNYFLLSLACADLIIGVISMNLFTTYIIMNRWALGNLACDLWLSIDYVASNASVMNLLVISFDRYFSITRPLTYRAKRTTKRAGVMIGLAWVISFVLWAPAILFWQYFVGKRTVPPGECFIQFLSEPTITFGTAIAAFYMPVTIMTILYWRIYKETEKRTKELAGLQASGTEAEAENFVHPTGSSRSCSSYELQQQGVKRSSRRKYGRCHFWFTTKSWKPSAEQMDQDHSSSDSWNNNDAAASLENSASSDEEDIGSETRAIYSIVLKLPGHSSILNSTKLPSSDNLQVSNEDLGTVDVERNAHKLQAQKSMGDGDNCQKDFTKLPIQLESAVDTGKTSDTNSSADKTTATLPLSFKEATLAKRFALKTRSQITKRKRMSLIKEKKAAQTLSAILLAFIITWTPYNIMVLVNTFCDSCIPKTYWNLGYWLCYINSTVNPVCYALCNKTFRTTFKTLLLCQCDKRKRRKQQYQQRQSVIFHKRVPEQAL

What was measured:
[1] = biological target: T1, muscarinic receptors, heart (Rattus norvegicus, UniProt P10980); assay: Receptor bonding test in vitro, heart (displacement of 3H-N-methylscopolamine); assay type: binding, Sprague-Dawley rats
T1 construct: After removal of the heart and submandibular gland; from tissue; host or cells: whole heart of male Sprague-Dawley rats, homogenate

salivation = assay: Salivation-inhibiting effect on the rat (pilocarpine); assay type: in vivo, male THOM rats; settings: i.v. ED50 values
[2] = biological target: muscarinic receptors, heart atrium (Rattus norvegicus, UniProt P10980); assay: Receptor bonding test in vivo, heart atrium (3H-NMS); settings: in vivo binding, 30 min
[3] = biological target: muscarinic receptors, lachrymal glands (Rattus norvegicus, UniProt P08483); assay: Receptor bonding test in vivo, lachrymal glands (3H-NMS); settings: iv, 0.5 h, read-out: ID50 Lachrymal glands

- Selectivity factor: Ratio IC50 submandibular gland to IC50 heart [1]: 5
- Ratio of ID50 lachrymal gland to ID50 atrium [2]: 50
- ED50 [3]: 10 mg/kg
Structure (SMILES): CCN(CC)CC1CCCCN1CCNC(=O)N1c2cc(Cl)ccc2C(=O)Nc2cccnc21 (stereo not shown) [Substance C, 9-chloro-11-[[[2-[2-[(diethylamino)methyl]-piperidin-1-yl]ethyl]amino]carbonyl]-5,11-dihydro-6H-pyrido[2,3-b][1,4]benzodiazepin-6-one]
- Ratio of salivation inhibition to M2 activity (salivation): 24.12
